Assay results reported in EP3727043B1 (Golden Gait Biotech, S.L., priority 2017, dated 2019).

By UniProt entry, the sequences of proteins in these tests, tags left out. Residues count along the entry.
UniProt P17787, 26-502 limits assumed: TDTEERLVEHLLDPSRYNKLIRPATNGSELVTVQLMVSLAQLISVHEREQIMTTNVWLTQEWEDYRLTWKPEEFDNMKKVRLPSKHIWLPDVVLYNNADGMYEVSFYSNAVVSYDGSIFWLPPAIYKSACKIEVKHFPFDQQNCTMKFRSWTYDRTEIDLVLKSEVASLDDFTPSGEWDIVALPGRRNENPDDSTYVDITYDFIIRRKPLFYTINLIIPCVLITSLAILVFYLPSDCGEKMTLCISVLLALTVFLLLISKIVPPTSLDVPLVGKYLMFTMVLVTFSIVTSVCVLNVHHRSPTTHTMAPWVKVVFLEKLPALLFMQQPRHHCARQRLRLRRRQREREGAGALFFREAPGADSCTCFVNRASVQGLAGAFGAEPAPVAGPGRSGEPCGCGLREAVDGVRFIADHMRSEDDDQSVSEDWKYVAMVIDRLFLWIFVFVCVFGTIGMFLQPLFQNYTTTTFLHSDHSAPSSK

Assays:
[1] = test system: rats with a unilateral 6-hydroxydopamine lesion; test: LIDs in rats with a unilateral 6-hydroxydopamine lesion; type: in vivo; conditions: parkinsonian rat model of LIDs
[2] = biological target: β2* nAChR (Homo sapiens, UniProt P17787); conditions: nAChR subtype: β2; cited from earlier work

In the case of O=C(C1CC1)N1CC2CC(C1)N2, the “reduction of LIDs” value [1] is listed as “reduced LIDs to varying extents” and the Ki [2] is listed as 1 to 3 nM.
